In patent US20250017979A1, “METHODS AND COMPOSITIONS FOR IMPROVING IN VIVO SURVIVAL OF MIDBRAIN DOPAMINE NEURONS” (MEMORIAL SLOAN-KETTERING CANCER CENTER, priority 2022, published 2025):

Tested on: NURR1::H2B-GFP sorted neurons
Assay: TNFα / adalimumab treatment of day 25 NURR1::H2B-GFP sorted dopamine neurons in vitro (immunofluorescence, western blot, qRT-PCR)
Assay type: cell-based, human
Method: hESC differentiation toward DA neurons. Midbrain dopaminergic neuron differentiation was performed using H9 hESCs, which include Nurr1::GFP. hESCs were grown on VTN-N (Thermo Fisher Scientific)-coated 6-well plates in E8-essential medium. Cells were maintained at 37° C., 5% CO2. hESCs were differentiated with an optimized protocol from a previously reported study (Kim et al., 2021, Cell Stem Cell February 4; 28 (2): 343-355.c5; Riessland et al., 2019, Cell Stem Cell. October 3; 25 (4): 514-530.c8). At day 25 of differentiation from hPSCs iCas9/NURR1::GFP hPSC lines containing sgRNA-pool libraries and sgRNA for dTomato and p53 hPSCs, GFP and dTomato expressed dopamine neurons were sorted using flow cytometry associated cell sorting (FACS). The sorted hPSCs were either injected into mice or cultured for subsequent experiments until use. […]
RNA extraction and Real time quantitative reverse transcription-PCR (gRT-PCR). […] Delta-delta-cycle threshold (AACT) was determined relative to GAPDH levels and normalized to control samples. […]
Protein isolation and western-blot analysis. […] Supernatant was collected upon 15 minutes centrifugation >15,000 rpm at 4° C. and protein concentration was measured using Precision Red Advanced Protein Assay (Cytoskeleton). […]

In the case of “TNFα: proinflammatory cytokine applied to cultured dopamine neurons as stimulus”, the “p53 and p53 downstream genes p21 and PUMA mRNA” value (TNFα exposure, qRT-PCR) is reported as “upregulated” and the “p53 expression in dopamine neurons (co-positive with NFκB-p65)” value (TNFα treatment, 24 hours, immunofluorescence) is reported as “increased”.
